The subject of this assay is kappa opioid receptor (KOR). Kind of assay: in vivo PET receptor occupancy. Particulars: rhesus monkey, brain. The format is cell-based, Macaca mulatta.

On to `C=CCN1CC[C@]23c4c5ccc(O)c4O[C@H]2C(=O)CC[C@@]3(O)[C@H]1C5` [naloxone], for which the “% occupancy at 1 mg/kg” value came out at 91 ± 2 % occupancy at 1 mg/kg.

Source of the values: article PMC4826283 (Journal of nuclear medicine : official publication, Society …, 2014).
